Measurements as given in article PMC9287434, “Inhibition of NMDA receptors through a membrane-to-channel path” (Nature Communications, 2022).

By UniProt entry, the sequences of proteins in these tests, tags left out. Residues count along the entry.
UniProt Q00959, 23-1464 A570W: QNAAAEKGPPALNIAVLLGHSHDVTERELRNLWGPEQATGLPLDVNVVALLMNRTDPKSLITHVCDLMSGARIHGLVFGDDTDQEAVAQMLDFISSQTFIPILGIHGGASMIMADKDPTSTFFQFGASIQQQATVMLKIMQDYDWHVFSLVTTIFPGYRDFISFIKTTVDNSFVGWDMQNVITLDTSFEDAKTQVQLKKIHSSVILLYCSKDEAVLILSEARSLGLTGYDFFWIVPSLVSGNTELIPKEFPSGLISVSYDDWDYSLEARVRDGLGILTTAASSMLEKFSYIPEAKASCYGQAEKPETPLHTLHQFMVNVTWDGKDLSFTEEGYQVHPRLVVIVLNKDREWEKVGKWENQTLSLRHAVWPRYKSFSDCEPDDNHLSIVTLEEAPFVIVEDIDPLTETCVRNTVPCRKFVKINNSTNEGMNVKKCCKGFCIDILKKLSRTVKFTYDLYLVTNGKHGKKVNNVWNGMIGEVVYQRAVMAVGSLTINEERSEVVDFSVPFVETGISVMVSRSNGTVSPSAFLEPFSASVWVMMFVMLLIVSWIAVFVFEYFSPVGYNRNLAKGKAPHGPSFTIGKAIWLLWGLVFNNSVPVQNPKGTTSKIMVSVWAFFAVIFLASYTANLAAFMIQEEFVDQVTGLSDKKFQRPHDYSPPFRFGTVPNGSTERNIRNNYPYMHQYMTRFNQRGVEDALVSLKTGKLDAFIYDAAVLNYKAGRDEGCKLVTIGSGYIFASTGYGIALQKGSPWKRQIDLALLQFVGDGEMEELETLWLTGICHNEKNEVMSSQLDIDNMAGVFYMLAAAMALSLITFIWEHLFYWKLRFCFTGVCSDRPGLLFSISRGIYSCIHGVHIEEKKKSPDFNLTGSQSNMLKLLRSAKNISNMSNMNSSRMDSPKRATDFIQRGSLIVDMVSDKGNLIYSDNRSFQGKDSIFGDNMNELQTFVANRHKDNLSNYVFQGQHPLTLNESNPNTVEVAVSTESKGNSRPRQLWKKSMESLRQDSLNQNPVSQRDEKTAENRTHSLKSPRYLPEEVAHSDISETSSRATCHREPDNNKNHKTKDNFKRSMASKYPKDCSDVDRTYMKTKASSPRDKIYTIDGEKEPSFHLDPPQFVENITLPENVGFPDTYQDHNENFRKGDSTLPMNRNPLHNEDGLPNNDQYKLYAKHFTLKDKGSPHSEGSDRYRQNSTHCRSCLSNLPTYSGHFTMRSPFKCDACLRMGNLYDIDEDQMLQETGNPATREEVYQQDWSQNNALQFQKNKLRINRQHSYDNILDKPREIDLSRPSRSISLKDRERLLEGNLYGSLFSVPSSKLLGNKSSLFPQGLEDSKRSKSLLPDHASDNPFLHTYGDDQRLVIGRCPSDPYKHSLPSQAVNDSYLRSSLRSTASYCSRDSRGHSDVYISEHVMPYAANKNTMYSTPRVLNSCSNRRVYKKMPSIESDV

Biological target: GluN1/2A(A570W) receptors (Rattus norvegicus, UniProt P35439+Q00959, A570W)
Experiment: Traditional memantine IC50, GluN1/2A(A570W)

With CC12CC3CC(C)(C1)CC(N)(C3)C2 [memantine] the IC50 was 933 ± 144 nM.
